According to PubChem BioAssay AID1778 (Sanford-Burnham Center for Chemical Genomics, 2009):
The list shows a part of the results. Measured potencies and affinities stand elsewhere. Calls of active or inactive are those of the source. Cut-off read from the data, not from the text of the source: active = inhibition above about 50%; inactive = the rest.

The chains behind the UniProt entries cited, without tags or fusion partners. Where a name states a change or a piece, a line headed by the entry shows the natural chain unless it says otherwise.
UniProt P41145: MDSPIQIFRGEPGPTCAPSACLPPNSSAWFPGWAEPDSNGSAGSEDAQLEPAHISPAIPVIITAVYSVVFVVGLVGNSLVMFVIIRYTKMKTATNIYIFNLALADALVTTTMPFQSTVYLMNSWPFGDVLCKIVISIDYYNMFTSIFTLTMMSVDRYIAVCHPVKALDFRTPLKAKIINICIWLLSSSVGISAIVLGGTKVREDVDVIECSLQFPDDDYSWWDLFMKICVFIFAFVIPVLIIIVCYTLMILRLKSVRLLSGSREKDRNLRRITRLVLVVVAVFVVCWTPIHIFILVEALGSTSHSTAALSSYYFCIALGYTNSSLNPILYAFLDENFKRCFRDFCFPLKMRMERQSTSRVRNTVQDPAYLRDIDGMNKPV

target: Kappa-type opioid receptor (Homo sapiens) (UniProt P41145); test: KOR antagonists, beta-arrestin recruitment, cell-based, luminescence, uHTS (AID 1778); conditions: antagonist mode, at 10 µM, hits give high values

Row | SMILES | inhibition
1 | CCOc1ccc(S(=O)(=O)N(C)c2ccc(OCC(=O)N3c4ccc(C)cc4C4CN(C)CCC43)cc2)cc1 (configuration not stated) | inactive: -30.7%
2 | CC(C)(C)NC(=O)Cn1c(SCC(=O)Nc2nccs2)nc2ccccc21 | inactive: 2.3%
3 | C[C@@H]1C=CCP(=O)(Oc2ccccc2)O1 (some centres not stated) | inactive: 22.7%
4 | O=C(CCNC(=O)N1CCn2c1nc1ccccc12)NCc1ccccc1Cl | inactive: -94.1%
5 | CN(C)CCn1c(N)nc2ccccc21 | inactive: -24.7%
6 | CN(C)C(=O)CSc1nc2ccccc2n1CC(=O)N1CCN(c2ccccc2)CC1 | inactive: 18.8%
7 | C[C@H]1OP(=O)(Oc2ccccc2)C[C@@H]2O[C@@H]21 (some centres not stated) | inactive: 28.9%
8 | CCC(=O)Nc1nc2ccccc2n1CCN(C)C | inactive: 2.9%
9 | Cc1ccc2c(c1)C1CN(C)CCC1N2Sc1ccccc1[N+](=O)[O-] (configuration not stated) | inactive: -1.8%
10 | O=C(Cn1c(SCC(=O)N2CCCc3ccccc32)nc2ccccc21)N1CCCC1 | inactive: 0.8%
11 | CC(=O)c1ccc(N2CC2c2ccncc2)cc1 (configuration not stated) | inactive: 32.6%
12 | Cc1ccc2c(c1)C1CN(C)CCC1N2C(=O)COc1ccc(N(C)S(=O)(=O)c2cccs2)cc1 (configuration not stated) | inactive: 0.1%
13 | COC(=O)c1ccccc1NC(=O)Cn1c(-c2nonc2N)nc2ccccc21 | inactive: -109%
14 | O=C(Cn1cnc2ccccc21)N/N=C/C(Br)=C/c1ccccc1 | inactive: -26.9%
15 | Cn1c(=O)c2c(ncn2CC(=O)N/N=C/C(Cl)=C/c2ccccc2)n(C)c1=O | inactive: -4.8%
16 | CC(NC(=O)CCCCCNC(=O)N1CCn2c1nc1ccccc12)c1ccccc1 (configuration not stated) | inactive: -18.4%
17 | CCOC(=O)c1ccc(NC(=O)C2CC(=O)Nc3nc4ccccc4n32)cc1 (configuration not stated) | inactive: 3%
18 | CCC(C(=O)NC1CCCC1)n1c(SCc2cccc(C)c2)nc2ccncc21 (configuration not stated) | inactive: 8.7%
19 | COc1ccc2c(c1)C1(Nc3ccccc3-c3nc4ccccc4n31)C(=O)N2 (configuration not stated) | inactive: -31.1%
20 | CC(=O)Nc1ccc([As](=O)(O)O)c(O)c1 | inactive: -10.5%
21 | O=S(=O)(c1ccc(F)cc1)N1CCn2c(nc3ccccc32)C1 | inactive: -3.4%
22 | CSCC[C@H](NC(=O)N1CCn2c1nc1ccccc12)C(=O)NC1CCCCC1 | inactive: -4.1%
23 | CC1=NNC(=O)C1CCC(=O)N/N=C/C=C/c1ccccc1 (configuration not stated) | inactive: 18%

Row | SMILES | inhibition
24 | O=C(CCNC(=O)N1CCn2c1nc1ccccc12)NCc1ccc(Cl)cc1 | inactive: -31.6%
25 | Cc1cc(NC(=O)CSc2nc3ccccc3n2CC(=O)N2CCC(C)CC2)no1 | inactive: -19.4%
26 | Cc1nc2cc(C(F)(F)F)ccc2n1C1CCN(Cc2nnnn2CCc2ccccc2)CC1 | inactive: -6.5%
27 | CC(=O)Nc1ccc(Oc2c([N+](=O)[O-])cc([N+](=O)[O-])cc2[N+](=O)[O-])cc1 | inactive: 25.7%
28 | CN1C(=O)CC(n2c(CO)nc3ccccc32)C1=O (configuration not stated) | inactive: 8.2%
29 | COc1ccccc1OCC(O)Cn1c(=N)n(CCN2CCCCC2)c2ccccc21 (configuration not stated) | inactive: -64.4%
30 | CC(C)C[C@H](NC(=O)N1CCn2c1nc1ccccc12)C(=O)NCc1ccccc1 | inactive: -10.4%
31 | Fc1ccc2c(c1)nnn2C1CCN(Cc2nnnn2CCc2ccccc2)CC1 | inactive: 0.5%
32 | O=C(Cn1cnc2ccccc21)Nc1ccc(C(=O)O)cc1 | inactive: -27.1%
33 | O=C(C1COc2ccccc2O1)N1CCn2c(nc3ccccc32)C1 (configuration not stated) | inactive: -1%
34 | COCCN1CCn2c(nc3cc(NC(=O)Cn4nc(C)c5ccccc5c4=O)ccc32)C1 | inactive: 41.4%
35 | COc1ccc(CCNC(=O)[C@H](C)NC(=O)N2CCn3c2nc2ccccc23)cc1OC | inactive: 5.8%
36 | CC(C)[C@H](NC(=O)N1CCn2c1nc1ccccc12)C(=O)NCc1ccc(F)cc1 | inactive: -19.4%
37 | Cn1c(=O)c2ncn(CC(=O)Nc3ccc(N4CCOCC4)cc3)c2n(C)c1=O | inactive: -6.6%
38 | CCOC(=O)C1CCCN(C(=O)Cn2cnc3c2c(=O)n(C)c(=O)n3C)C1 (configuration not stated) | inactive: -34%
39 | O=C(C1CCCN1S(=O)(=O)c1cccc2cccnc12)N1CCn2c1nc1ccccc12 (configuration not stated) | inactive: 1.1%
40 | c1ccc(-c2nn[nH]n2)c(-c2nn[nH]n2)c1 | inactive: -8.3%
41 | O=C(Cn1c(-c2ccco2)nc2ccccc21)N1CCCCC1 | inactive: 11.8%
42 | CCOC(=O)NC(Sc1ccccc1)C(Cl)(Cl)Cl (configuration not stated) | inactive: 20%
43 | Cc1ccc(NP(=O)(Oc2cccc(C)c2)Oc2cccc(C)c2)nc1 | inactive: -51%
44 | O=c1[nH]c2ccccc2n1C1CCN(CCCC(c2ccc(F)cc2)c2ccc(F)cc2)CC1 | inactive: 19.3%
45 | Cc1ccc(Cn2c(=O)c3c(nc4n3CCN4Cc3ccco3)n(C)c2=O)cc1 | inactive: -0.9%
46 | COc1cc(/C=N/NC(=O)Cn2cnc3c2c(=O)n(C)c(=O)n3C)ccc1O | inactive: 16.6%

Row | SMILES | inhibition
47 | CCSc1nc2ccccc2n1CC(=O)N1CCOCC1 | inactive: 3.2%
48 | O=C(NC1CCS(=O)(=O)C1)NP(=S)(Oc1ccccc1)Oc1ccccc1 (configuration not stated) | inactive: -20.5%
49 | COc1cccc(NC(=O)[C@H](C)NC(=O)N2CCn3c2nc2ccccc23)c1 | inactive: 25%
50 | S=C(Nc1ccccc1)N1CCn2c1nc1ccccc12 | inactive: -17.7%
51 | COc1cccc(/C=N/NC(=O)Cn2cnc3c2c(=O)n(C)c(=O)n3C)c1 | inactive: -23.8%
52 | c1ccc(CN2CCN(CCN3CCn4c3nc3ccccc34)CC2)cc1 | inactive: 10.6%
53 | Cc1nc2ccccc2n1C1CC(=O)N(Cc2ccccc2)C1=O (configuration not stated) | inactive: -25.2%
54 | CC(c1ccccc1)N1CCn2c(nc3cc(NS(C)(=O)=O)ccc32)C1 (configuration not stated) | inactive: 4.5%
55 | COc1ccccc1C(=O)Nc1ccc2c(c1)nc1n2CCN(C2CCCCC2)C1 | inactive: -40.6%
56 | O=C(Cn1c(-c2cscn2)nc2ccccc21)Nc1ccccc1F | inactive: -42.7%
57 | O=C(Nc1nc2ccccc2n1CCN1CCCCC1)c1ccco1 | inactive: 9.8%
58 | CCC(=O)Nc1cccc(C(=O)/C=C/c2cc(Br)ccc2OC)c1 | inactive: 25.1%
59 | O=S(=O)(c1ccccc1)c1nnn2c1nc(NC1CCN(Cc3ccccc3)CC1)c1ccccc12 | inactive: -32.7%
60 | CC(O)CNc1nc2ccccc2n1CC(=O)NCCc1ccc(Cl)cc1 (configuration not stated) | inactive: 9.6%
61 | O=C(Nc1nc2ccccc2n1CCN1CCCCC1)C1CCCCC1 | inactive: 30.3%
62 | CC(NC(=O)CCNC(=O)N1CCn2c1nc1ccccc12)c1ccccc1 (configuration not stated) | inactive: -56.2%
63 | CC1Cc2ccccc2N1C(=O)Cn1cnc2c1c(=O)n(C)c(=O)n2C (configuration not stated) | inactive: -13.7%
64 | Cn1c(=O)c2c(nc(CN3CCN(C(=O)c4ccco4)CC3)n2CC(N)=O)n(C)c1=O | inactive: -1.9%
65 | CC(C)NC(=O)Cn1c(SCC(=O)N2c3ccccc3CC2C)nc2ccccc21 (configuration not stated) | inactive: -6.9%
66 | O=C(c1ccc(Cl)cc1)N1CCn2c1nc1ccccc12 | inactive: -25.1%
67 | CCOC(=O)CSc1nc2ccccc2n1CC(=O)N(C(C)C)C(C)C | inactive: -14.3%
68 | O=S(=O)(c1ccccc1)N1CCn2c(nc3ccccc32)C1 | inactive: -32.6%
69 | O=C1NCN(c2ccccc2)C12CCNCC2 | inactive: -19.1%

Row | SMILES | inhibition
70 | CCCS(=O)(=O)N1CCn2c(nc3ccccc32)C1 | inactive: -26.5%
71 | CC(=O)NC(C)c1nc2ccccc2n1CC(=O)N1C(C)CCCC1C (configuration not stated) | inactive: 22.9%
72 | Cc1ccc(CN2C(=O)c3ccccc3NC23CCN(Cc2ccccc2)CC3)cc1 | inactive: -39%
73 | O=C(OC1CN2CCC1CC2)c1ccccc1 (configuration not stated) | inactive: 6.6%
74 | CC(O)CNc1nc2ccccc2n1CC(=O)NC12CC3CC(CC(C3)C1)C2 (configuration not stated) | inactive: 10.1%
75 | CC1CN(CCn2cnc3c(N)ncnc32)CC(C)O1 (configuration not stated) | inactive: 16.5%
76 | O=C1CC(N2CCC(n3c(=O)[nH]c4ccccc43)CC2)C(=O)N1Cc1ccccc1 (configuration not stated) | inactive: -9.2%
77 | Cc1ccc2c(c1)C1CN(C)CCC1N2C(=O)c1cccc(S(=O)(=O)N(C)C)c1 (configuration not stated) | inactive: 10.9%
78 | O=C(CCCCCNC(=O)N1CCn2c1nc1ccccc12)NCc1ccc(F)cc1 | inactive: -2.8%
79 | CC(C)N(C(=O)Cn1c(SCC(=O)Nc2nccs2)nc2ccccc21)C(C)C | inactive: 24.1%
80 | Cc1ccc2c(c1)C1CN(C)CCC1N2S(=O)(=O)c1ccccc1 (configuration not stated) | inactive: -4%
81 | CC(C)[C@H](NC(=O)N1CCn2c1nc1ccccc12)C(=O)NCCc1ccccc1 | inactive: 19.5%
82 | CN1CCC(N(C)c2ccc(C(N)=O)cc2[N+](=O)[O-])CC1 | inactive: -41.5%
83 | Cc1ccc2c(c1)C1CN(C)CCC1N2C(=S)NC(=O)c1ccc(Cl)cc1Cl (configuration not stated) | inactive: -8.9%
84 | O=C(Cn1c(=O)n(CC(=O)NCc2ccccc2)c2ccccc21)NCc1ccccc1 | inactive: -4.5%
85 | CC(/C=N\NC(=O)Cn1c(C)nc2ccccc21)=C\c1ccccc1 | inactive: -2.6%
86 | CCCC(=O)Nc1ccc2c(c1)nc1n2CCN(CCOC)C1 | inactive: -21.8%
87 | Cc1ccc(C)c(Cn2c(=O)c3c(nc4n3CCN4Cc3ccco3)n(C)c2=O)c1 | inactive: -10.1%
88 | CCC(=O)N1C2C3N(C(=O)CC)C1C1N(C(=O)CC)C(C(N1C(=O)CC)N3C(=O)CC)N2C(=O)CC | inactive: -5.5%
89 | Cn1c(=O)c2c(ncn2CC(=O)NC2CCCCC2)n(C)c1=O | inactive: 12.8%
90 | COC(=O)c1cc2c(s1)N=C(c1ccccc1)N(C)P2(=O)N1CCOCC1 (configuration not stated) | inactive: -4%
91 | CC(C)NC(=O)Cn1cnc2c1c(=O)n(C)c(=O)n2C | inactive: 10.4%
92 | CC(/C=N/NC(=O)Cn1cnc2c1c(=O)n(C)c(=O)n2C)=C\c1ccco1 | inactive: -28.5%
